From patent publication US20200246352A1, “Vanadyl and vanadate for use in reducing stress-induced metabolic derangement” (CFM Pharma Holding B.V., priority 2017, published 2020)

Tested on: healthy male Wistar rats
Settings: high adrenaline dose (HA) 1 μg/kg/min
Description: In the first part of the study (Table 1, Table 3, series 1), thirteen (13) healthy male Wistar rats were anesthetized by intraperitoneal (ip.) injection of thiopental (Tiobarbital 0.5 g, Braun Medical SA) after 12 hours of fasting.

CNCC(O)c1ccc(O)c(O)c1 (stereo not drawn) [adrenaline]
Blood glucose levels, individual animals in duplicate (120 min): 16.5 mM/l
Blood glucose levels, individual animals in duplicate (150 min): 17.3 mM/l
Blood glucose levels, individual animals in duplicate (180 min): 18.3 mM/l

Read-outs that look alike come from different tables or passages of the source.
